Among the targets are Ret(V804M)(h) (Homo sapiens, UniProt P07949, V804M); c-RAF(h) (Homo sapiens, UniProt P04049); SIK(h) (Homo sapiens, UniProt P57059); LIMK1(h) (Homo sapiens, UniProt P53667); Lck(h) (Homo sapiens, UniProt P06239); cKit(V560G)(h) (Homo sapiens, UniProt P10721, V560G); Ab1(M351T)(h) (Homo sapiens, UniProt P00519, M351T); Rsk3(h) (Homo sapiens, UniProt Q15349); Hck(h) (Homo sapiens, UniProt P08631); PAK6(h) (Homo sapiens, UniProt Q9NQU5); GSK3α(h) (Homo sapiens, UniProt P49840); MRCKα(h) (Homo sapiens, UniProt Q5VT25); Snk(h) (Homo sapiens, UniProt Q9NYY3); IR(h), activated (Homo sapiens, UniProt P06213); EGFR(T790M)(h) (Homo sapiens, UniProt P00533, T790M); Rsk1(h) (Homo sapiens, UniProt Q15418); PDGFRα(D842V)(h) (Homo sapiens, UniProt P16234, D842V).

The chains behind the UniProt entries cited, without tags or fusion partners. Where a name states a change or a piece, a line headed by the entry shows the natural chain unless it says otherwise. Residues count along the entry.
UniProt P57059: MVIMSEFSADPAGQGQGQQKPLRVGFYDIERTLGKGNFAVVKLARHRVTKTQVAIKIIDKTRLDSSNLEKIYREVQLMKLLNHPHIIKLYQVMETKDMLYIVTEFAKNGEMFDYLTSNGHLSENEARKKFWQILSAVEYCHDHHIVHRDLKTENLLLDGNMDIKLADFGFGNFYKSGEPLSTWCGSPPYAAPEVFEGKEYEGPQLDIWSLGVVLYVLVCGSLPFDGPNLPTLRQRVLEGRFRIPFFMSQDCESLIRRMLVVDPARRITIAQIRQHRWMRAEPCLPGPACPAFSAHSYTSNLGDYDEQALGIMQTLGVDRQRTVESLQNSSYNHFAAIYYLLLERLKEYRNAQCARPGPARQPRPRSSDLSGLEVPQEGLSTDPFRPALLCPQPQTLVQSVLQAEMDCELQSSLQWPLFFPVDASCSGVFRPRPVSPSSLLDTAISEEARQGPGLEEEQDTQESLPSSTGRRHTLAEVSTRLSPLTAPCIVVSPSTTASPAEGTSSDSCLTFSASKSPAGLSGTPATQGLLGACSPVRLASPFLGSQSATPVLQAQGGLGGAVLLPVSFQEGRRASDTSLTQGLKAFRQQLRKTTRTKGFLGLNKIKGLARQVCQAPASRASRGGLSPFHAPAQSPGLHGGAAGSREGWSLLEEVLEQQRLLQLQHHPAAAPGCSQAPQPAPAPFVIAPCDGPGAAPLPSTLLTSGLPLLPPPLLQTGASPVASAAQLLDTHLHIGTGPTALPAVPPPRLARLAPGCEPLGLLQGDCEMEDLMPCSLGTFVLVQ
UniProt P53667: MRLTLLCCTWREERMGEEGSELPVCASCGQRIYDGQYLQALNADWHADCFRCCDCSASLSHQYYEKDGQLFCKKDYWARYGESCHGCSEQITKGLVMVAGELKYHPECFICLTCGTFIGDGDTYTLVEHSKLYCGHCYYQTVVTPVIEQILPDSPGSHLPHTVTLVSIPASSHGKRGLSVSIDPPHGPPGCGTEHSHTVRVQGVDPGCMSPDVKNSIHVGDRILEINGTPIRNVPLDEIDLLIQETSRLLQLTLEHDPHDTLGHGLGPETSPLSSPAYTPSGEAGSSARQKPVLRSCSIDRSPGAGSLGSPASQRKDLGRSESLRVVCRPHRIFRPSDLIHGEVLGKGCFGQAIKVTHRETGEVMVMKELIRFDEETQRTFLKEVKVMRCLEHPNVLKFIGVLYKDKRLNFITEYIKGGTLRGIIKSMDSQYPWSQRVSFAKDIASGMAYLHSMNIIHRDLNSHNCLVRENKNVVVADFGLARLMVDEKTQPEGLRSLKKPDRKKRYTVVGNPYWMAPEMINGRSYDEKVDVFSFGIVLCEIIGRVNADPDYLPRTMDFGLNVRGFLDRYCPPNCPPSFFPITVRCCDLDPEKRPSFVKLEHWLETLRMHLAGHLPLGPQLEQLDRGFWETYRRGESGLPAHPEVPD
UniProt P06239: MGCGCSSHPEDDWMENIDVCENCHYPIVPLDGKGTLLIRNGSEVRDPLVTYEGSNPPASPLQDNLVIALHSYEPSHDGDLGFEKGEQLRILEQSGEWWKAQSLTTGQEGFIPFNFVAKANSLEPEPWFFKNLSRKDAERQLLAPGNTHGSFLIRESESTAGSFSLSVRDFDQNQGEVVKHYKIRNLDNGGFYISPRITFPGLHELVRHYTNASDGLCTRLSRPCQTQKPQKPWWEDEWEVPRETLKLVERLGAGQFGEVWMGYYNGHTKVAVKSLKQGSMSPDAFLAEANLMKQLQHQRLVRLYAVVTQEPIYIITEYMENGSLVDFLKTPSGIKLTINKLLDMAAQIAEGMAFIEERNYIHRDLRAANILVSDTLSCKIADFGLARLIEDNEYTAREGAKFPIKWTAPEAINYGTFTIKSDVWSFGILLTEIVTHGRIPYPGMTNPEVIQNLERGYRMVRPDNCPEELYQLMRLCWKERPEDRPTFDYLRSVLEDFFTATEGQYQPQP
UniProt Q15349, whole entry: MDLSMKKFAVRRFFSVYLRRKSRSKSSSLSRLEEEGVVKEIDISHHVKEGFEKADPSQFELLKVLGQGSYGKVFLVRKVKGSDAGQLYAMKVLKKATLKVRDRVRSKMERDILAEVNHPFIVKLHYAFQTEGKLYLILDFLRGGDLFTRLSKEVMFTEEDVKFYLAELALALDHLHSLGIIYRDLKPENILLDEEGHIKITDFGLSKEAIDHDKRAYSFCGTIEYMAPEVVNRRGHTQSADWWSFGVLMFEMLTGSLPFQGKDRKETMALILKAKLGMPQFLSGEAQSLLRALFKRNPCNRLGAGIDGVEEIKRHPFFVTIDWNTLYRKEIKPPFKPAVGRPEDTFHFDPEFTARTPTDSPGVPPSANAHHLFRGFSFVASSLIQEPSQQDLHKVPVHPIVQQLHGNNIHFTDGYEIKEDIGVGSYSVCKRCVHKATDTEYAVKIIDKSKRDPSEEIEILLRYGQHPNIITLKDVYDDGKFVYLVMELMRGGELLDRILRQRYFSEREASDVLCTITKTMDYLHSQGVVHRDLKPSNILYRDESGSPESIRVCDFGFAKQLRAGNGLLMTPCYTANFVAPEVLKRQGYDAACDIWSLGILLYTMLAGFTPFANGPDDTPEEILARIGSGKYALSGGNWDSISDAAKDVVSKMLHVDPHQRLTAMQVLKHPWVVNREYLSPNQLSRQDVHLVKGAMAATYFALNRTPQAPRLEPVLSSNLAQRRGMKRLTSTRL
UniProt P08631: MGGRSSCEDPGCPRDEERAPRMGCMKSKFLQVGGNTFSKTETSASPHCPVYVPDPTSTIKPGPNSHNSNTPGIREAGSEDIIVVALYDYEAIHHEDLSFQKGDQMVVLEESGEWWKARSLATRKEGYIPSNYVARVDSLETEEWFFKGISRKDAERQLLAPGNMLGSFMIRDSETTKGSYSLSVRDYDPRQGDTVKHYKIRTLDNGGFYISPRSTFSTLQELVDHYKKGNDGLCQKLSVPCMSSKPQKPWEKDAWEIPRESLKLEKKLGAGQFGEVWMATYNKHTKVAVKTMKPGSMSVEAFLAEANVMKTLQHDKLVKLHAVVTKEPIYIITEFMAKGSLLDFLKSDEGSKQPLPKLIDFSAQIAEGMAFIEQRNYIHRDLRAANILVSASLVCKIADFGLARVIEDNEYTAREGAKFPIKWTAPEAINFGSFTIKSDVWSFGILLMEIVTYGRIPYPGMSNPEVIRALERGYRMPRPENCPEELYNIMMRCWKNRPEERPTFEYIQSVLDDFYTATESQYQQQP
UniProt P49840: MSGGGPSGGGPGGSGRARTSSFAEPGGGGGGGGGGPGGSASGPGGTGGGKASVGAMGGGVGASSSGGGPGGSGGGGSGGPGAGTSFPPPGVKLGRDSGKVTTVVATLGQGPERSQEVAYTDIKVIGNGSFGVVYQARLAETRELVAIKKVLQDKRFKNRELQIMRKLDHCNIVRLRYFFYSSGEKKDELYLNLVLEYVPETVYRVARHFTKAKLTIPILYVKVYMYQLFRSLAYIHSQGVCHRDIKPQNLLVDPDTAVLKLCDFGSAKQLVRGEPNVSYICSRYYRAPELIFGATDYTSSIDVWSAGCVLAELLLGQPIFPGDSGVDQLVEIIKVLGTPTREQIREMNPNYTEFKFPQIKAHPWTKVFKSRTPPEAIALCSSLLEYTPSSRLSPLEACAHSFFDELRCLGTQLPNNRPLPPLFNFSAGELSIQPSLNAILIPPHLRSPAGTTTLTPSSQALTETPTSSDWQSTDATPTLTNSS
UniProt Q9NYY3: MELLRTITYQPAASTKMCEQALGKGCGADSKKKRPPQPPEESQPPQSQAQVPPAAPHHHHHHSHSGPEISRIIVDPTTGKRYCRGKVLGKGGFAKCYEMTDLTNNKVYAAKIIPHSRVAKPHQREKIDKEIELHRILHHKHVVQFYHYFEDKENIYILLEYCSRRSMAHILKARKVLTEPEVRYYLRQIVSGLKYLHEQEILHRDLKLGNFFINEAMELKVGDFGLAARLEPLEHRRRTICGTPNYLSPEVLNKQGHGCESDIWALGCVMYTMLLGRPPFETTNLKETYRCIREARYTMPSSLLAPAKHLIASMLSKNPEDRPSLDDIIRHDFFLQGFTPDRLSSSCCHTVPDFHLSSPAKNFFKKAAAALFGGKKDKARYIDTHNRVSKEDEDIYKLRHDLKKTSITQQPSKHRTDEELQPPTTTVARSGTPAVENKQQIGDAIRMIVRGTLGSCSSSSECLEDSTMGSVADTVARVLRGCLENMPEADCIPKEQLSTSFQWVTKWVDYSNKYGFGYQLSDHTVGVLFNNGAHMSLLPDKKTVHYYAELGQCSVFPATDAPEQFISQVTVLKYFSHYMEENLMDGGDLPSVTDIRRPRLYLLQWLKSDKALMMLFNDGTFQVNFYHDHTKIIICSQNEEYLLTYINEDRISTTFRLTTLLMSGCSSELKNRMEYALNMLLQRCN
UniProt Q15418, whole entry: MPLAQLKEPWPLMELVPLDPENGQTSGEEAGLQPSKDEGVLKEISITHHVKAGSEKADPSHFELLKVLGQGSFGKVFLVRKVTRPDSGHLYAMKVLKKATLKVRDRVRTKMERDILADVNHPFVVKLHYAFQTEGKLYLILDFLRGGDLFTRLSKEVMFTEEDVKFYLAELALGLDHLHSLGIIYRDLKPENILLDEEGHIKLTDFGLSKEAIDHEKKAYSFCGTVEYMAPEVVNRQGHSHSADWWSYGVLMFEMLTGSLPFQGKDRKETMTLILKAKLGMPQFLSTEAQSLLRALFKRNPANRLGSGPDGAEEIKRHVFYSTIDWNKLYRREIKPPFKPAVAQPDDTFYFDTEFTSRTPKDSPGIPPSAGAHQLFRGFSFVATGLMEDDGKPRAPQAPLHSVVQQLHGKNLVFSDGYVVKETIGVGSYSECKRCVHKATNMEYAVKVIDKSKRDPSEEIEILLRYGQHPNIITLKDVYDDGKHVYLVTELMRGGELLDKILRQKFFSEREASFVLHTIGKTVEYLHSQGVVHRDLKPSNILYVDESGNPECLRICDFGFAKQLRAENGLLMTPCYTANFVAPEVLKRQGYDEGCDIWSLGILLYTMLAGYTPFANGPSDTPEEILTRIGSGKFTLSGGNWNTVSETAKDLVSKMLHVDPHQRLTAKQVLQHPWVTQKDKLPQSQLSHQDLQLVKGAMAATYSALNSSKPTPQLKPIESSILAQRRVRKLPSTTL
UniProt P16234, 24-1089 D842V: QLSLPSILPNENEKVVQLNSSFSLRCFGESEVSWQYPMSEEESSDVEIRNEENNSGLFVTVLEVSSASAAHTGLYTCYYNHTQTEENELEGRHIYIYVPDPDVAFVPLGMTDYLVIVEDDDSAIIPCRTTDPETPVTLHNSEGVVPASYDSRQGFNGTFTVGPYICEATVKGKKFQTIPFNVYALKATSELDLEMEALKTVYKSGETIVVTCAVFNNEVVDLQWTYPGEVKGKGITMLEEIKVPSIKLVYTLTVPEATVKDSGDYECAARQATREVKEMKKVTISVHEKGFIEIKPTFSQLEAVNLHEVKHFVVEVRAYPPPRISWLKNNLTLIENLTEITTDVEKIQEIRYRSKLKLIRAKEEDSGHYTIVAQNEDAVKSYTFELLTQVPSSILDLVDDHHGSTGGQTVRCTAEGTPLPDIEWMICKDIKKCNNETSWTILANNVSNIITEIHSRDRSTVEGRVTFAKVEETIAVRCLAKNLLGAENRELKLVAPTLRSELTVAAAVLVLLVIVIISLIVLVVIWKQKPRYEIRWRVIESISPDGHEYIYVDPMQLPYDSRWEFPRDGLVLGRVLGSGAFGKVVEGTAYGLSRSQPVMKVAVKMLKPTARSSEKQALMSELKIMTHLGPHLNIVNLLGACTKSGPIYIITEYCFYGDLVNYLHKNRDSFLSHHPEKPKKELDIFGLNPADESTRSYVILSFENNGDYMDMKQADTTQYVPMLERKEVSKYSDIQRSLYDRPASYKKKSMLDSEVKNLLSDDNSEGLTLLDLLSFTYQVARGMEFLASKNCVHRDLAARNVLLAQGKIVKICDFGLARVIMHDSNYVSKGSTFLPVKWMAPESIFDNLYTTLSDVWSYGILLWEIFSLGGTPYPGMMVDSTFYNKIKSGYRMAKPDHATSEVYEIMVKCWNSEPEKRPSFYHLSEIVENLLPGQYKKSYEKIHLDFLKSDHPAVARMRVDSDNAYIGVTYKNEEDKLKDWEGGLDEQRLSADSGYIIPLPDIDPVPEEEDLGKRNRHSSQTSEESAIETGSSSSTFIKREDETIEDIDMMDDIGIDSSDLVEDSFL

Holding throughout (assay): Kinase Profiling Assay
Type in all cases: biochemical
Conditions in all cases: 100 μM

Another experiment addresses T1, EphA1(h) (Homo sapiens, UniProt P21709).
T1 sequence (P21709 26-976): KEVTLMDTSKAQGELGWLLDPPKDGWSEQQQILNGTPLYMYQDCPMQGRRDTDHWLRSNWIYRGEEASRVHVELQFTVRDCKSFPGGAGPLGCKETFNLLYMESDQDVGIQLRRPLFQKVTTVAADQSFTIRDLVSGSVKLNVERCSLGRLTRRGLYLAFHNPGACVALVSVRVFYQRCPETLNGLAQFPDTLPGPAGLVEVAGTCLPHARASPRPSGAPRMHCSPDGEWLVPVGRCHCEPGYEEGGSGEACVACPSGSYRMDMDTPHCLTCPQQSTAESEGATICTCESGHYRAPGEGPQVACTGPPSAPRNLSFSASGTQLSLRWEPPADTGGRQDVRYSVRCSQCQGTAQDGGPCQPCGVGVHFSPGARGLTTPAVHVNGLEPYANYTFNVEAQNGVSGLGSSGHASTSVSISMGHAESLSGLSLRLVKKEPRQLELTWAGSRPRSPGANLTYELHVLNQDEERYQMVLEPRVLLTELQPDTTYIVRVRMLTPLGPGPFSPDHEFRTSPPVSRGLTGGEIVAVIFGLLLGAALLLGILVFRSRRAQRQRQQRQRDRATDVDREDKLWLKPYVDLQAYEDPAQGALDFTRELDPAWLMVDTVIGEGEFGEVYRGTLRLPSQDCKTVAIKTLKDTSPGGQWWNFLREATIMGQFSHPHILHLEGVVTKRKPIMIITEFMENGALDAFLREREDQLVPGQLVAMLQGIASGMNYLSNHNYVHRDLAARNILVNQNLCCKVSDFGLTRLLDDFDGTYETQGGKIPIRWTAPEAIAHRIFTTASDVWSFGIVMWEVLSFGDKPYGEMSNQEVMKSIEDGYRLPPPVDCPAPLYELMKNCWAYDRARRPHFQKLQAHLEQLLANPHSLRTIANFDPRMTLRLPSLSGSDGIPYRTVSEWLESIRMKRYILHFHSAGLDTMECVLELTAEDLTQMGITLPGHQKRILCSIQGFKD

Another experiment has as its target T2, BrSK2(h) (Homo sapiens, UniProt Q8IWQ3).
T2 sequence (Q8IWQ3 1-736): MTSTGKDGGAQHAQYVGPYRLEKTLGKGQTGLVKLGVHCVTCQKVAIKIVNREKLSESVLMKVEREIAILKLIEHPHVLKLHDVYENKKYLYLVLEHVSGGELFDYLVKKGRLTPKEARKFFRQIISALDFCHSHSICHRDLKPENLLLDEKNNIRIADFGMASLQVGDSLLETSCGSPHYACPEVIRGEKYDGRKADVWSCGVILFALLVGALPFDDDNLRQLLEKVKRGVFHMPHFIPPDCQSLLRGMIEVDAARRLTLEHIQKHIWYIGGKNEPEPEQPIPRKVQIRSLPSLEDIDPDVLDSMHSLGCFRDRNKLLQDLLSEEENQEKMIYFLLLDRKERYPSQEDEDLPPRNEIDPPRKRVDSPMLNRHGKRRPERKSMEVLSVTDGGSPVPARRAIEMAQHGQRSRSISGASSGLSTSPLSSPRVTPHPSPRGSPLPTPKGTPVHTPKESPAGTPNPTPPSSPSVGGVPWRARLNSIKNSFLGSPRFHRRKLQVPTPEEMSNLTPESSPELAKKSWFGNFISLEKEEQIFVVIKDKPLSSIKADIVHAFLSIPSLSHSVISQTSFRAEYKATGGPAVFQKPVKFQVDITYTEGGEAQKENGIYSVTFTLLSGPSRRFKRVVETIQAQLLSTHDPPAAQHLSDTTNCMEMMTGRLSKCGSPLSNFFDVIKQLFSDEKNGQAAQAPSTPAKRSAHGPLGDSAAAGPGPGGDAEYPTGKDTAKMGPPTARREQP

As to “YARAAARQARAKALNRQLGVA (Mammalian) [MMI-0200]”, the “% activity” value with Ret(V804M)(h) is reported as 105%; with c-RAF(h), 115%; with SIK(h), 102%; with LIMK1(h) it was 109%; with EphA1(h), 136%; in the experiment with Lck(h) it was 113%. In addition, the “% activity” value with cKit(V560G)(h) is reported as 115%; in the experiment with Ab1(M351T)(h), 119%; with Rsk3(h) it was 109%; in the experiment with Hck(h), 107%; with PAK6(h), 105%; with GSK3α(h), 119%. The “% activity” value with BrSK2(h) turned out to be 102%; with MRCKα(h), 103%; with Snk(h), 109%; with IR(h), activated, 105%; in the experiment with EGFR(T790M)(h), 113%; with Rsk1(h) it was 102%. In addition, in the experiment with PDGFRα(D842V)(h), the “% activity” value is 107%.

The values above are taken from patent US10087225B2, “Formulation of MK2 inhibitor peptides” (MOERAE MATRIX, INC., priority 2015, dated 2018).
